Species on record: Homo sapiens
Experiment: Selectivity ratio of IC50 for human recombinant MAO-B to IC50 for human mGluR5

Ratio IC50: 0.09
Structure (SMILES): Cc1ccc(Nc2ncc3c(n2)CC(C)CC3=O)cc1 (racemic)
